# CycPeptMPDB entries from one study

Data: CycPeptMPDB; original report Bhardwaj et al. 2022, doi:10.1016/j.cell.2022.07.019.

PAMPA measures passive passage through an artificial lipid membrane.
Caco-2 values are permeabilities across monolayers of Caco-2 human intestinal cells.
Values are log10 P with P in cm/s, so -5 is more permeable than -7.
Cells with "n/a" have no entry in this list.

SMILES	PAMPA (log10 cm/s)	Caco-2 (log10 cm/s)
CSCC[C@@H]1NC(=O)[C@H](C(C)C)NC(=O)[C@H]2CCCN2C(=O)[C@@H]2CCCN2C(=O)[C@H](C)NC(=O)[C@@H](C)N(C)C(=O)[C@@H](CC(C)C)N(C)C(=O)[C@@H](C(C)C)NC(=O)[C@@H]2CCCN2C1=O	-6.53	n/a
CC(C)C[C@H]1C(=O)N2CCC[C@@H]2C(=O)N[C@@H](Cc2ccccc2)C(=O)N2CCC[C@H]2C(=O)N[C@H](C(C)C)C(=O)N[C@H](Cc2ccccc2)C(=O)N1C	-5.22	n/a
CC(C)C[C@H]1NC(=O)[C@H]2CCCN2C(=O)[C@@H]2CCCN2C(=O)[C@@H](Cc2ccccc2)NC(=O)[C@@H](C(C)C)NC(=O)[C@H](CC(C)C)N(C)C(=O)[C@@H](Cc2ccccc2)NC1=O	-5.06	n/a
CC[C@@H](C)[C@H]1NC(=O)[C@H](CC(C)C)N(C)C(=O)[C@H]2CCCN2C(=O)[C@H](CC(C)C)NC(=O)[C@H](Cc2ccccc2)N(C)C(=O)CN(C)C(=O)[C@@H](C(C)C)NC(=O)[C@H](C)NC(=O)[C@H]2CCCN2C(=O)[C@@H]2CCCN2C1=O	-6.46	n/a
CC(C)[C@@H]1C(=O)N[C@@H](Cc2ccccc2)C(=O)N2CCC[C@H]2C(=O)N(C)[C@H](Cc2ccccc2)C(=O)N[C@H](C)C(=O)N2CCC[C@H]2C(=O)N1C	-5.58	n/a
CSCC[C@@H]1NC(=O)[C@H]2CCCN2C(=O)[C@H](C(C)C)NC(=O)[C@@H](CC(C)C)N(C)C(=O)[C@H](Cc2ccccc2)NC(=O)[C@H](CC(C)C)NC(=O)[C@@H](CC(C)C)N(C)C(=O)[C@@H]2CCCN2C(=O)[C@@H](CC(C)C)NC1=O	-6.62	n/a
CSCC[C@@H]1NC(=O)[C@H](CC(C)C)NC(=O)[C@@H]2CCCN2C(=O)[C@H]2CCCN2C(=O)[C@@H](C)NC(=O)[C@H]2CCCN2C(=O)[C@@H](CC(C)C)NC(=O)[C@@H](C)N(C)C(=O)[C@H](CC(C)C)N(C)C(=O)[C@@H](C)N(C)C1=O	-6.15	n/a
CC(C)C[C@H]1NC(=O)[C@@H]2CCCN2C(=O)[C@H]2CCCN2C(=O)[C@H](C(C)C)NC(=O)[C@@H](CC(C)C)NC(=O)[C@@H]2CCCN2C(=O)[C@H]2CCCN2C(=O)[C@H](C(C)C)NC1=O	-6.74	n/a
CC[C@@H](C)[C@H]1NC(=O)[C@H](CC(C)C)NC(=O)[C@@H](CC(C)C)NC(=O)[C@H](C(C)C)NC(=O)[C@@H](Cc2ccccc2)N(C)C(=O)[C@@H]2CCCN2C(=O)[C@@H](CC(C)C)NC(=O)[C@H](CC(C)C)NC(=O)[C@H]2CCCN2C1=O	n/a	-5.46
CSCC[C@@H]1NC(=O)[C@@H]2CCCN2C(=O)[C@@H](C(C)C)NC(=O)[C@@H](C)N(C)C(=O)[C@@H](CC(C)C)NC(=O)[C@@H](CC(C)C)NC(=O)[C@@H]2CCCN2C(=O)[C@H]2CCCN2C1=O	-6.44	n/a
CSCC[C@@H]1NC(=O)[C@H]2CCCN2C(=O)[C@@H]2CCCN2C(=O)[C@@H](C)NC(=O)[C@H]2CCCN2C(=O)[C@@H](C(C)C)NC(=O)[C@H](C(C)C)NC(=O)[C@@H](Cc2ccccc2)N(C)C(=O)[C@H](C)N(C)C1=O	-7.16	n/a

A selection of 2 entries from above:

SMILES	PAMPA (log10 cm/s)	Caco-2 (log10 cm/s)
CC(C)C[C@H]1NC(=O)[C@H]2CCCN2C(=O)[C@@H]2CCCN2C(=O)[C@@H](Cc2ccccc2)NC(=O)[C@@H](C(C)C)NC(=O)[C@H](CC(C)C)N(C)C(=O)[C@@H](Cc2ccccc2)NC1=O	-5.06	n/a
CSCC[C@@H]1NC(=O)[C@H](CC(C)C)NC(=O)[C@@H]2CCCN2C(=O)[C@H]2CCCN2C(=O)[C@@H](C)NC(=O)[C@H]2CCCN2C(=O)[C@@H](CC(C)C)NC(=O)[C@@H](C)N(C)C(=O)[C@H](CC(C)C)N(C)C(=O)[C@@H](C)N(C)C1=O	-6.15	n/a

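Conditions beyond the assay type are not listed; see the original paper. Other peptides of the study may be missing here. Peptides that the database sets to -10, its floor, are left out.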